In patent publication US20230027247A1, “SMALL MOLECULE COMPOUNDS FOR AMPLIFYING HEMATOPOIETIC STEM CELLS, AND COMBINATION THEREOF” (EDIGENE (GUANGZHOU) INC., priority 2019, published 2023):
Read-outs that look alike come from different tables or passages of the source.

Experiments:
[1] = tested on: umbilical cord blood-derived CD34+ cells; assay: In vitro expansion and stemness maintenance, 8 days of treatment (flow cytometry and cell counting); assay type: cell-based, human; conditions: for proportion of CD34+ cells: FIG. 18, SR1 5 μM, UM171 350 nM, Dasatinib 50 nM
Protocol: 20 μL of cell suspension is respectively taken on day 2, day 4, day 6 and day 8 of the culture to count in a cell counter (Nexcelom, model: Cellometer K2), calculating the final absolute number of CD34+ cells and LT cells on day 8 (absolute number of cells=cell proportion*total number of cells), the results are shown in FIG. 18.

[2] = tested on: umbilical cord blood-derived CD34+ cells; conditions: for maintaining the stemness of HSCs (comparison with SAHA): FIG. 8, inhibitors of Table 5 alone or combined with SAHA

Cn1nnc(-c2ccc3c(c2)[nH]c2nc(Cc4ccccc4)nc(NC4CCC(N)CC4)c23)n1 (centres unmarked) [UM171]
proportion of CD34+ cells [1]: about 40% | maintaining the stemness of HSCs (comparison with SAHA) [2]: far less effective than SAHA

CC(C)n1cnc2c(NCCc3ccc(O)cc3)nc(-c3csc4ccccc34)nc21 [SR1, StemRegenin1]
proportion of CD34+ cells [1]: about 65% | maintaining the stemness of HSCs (comparison with SAHA) [2]: far less effective than SAHA

Cc1nc(Nc2ncc(C(=O)Nc3c(C)cccc3Cl)s2)cc(N2CCN(CCO)CC2)n1 [Dasatinib]
maintaining stemness, times more effective than SR1 ([1]; FIG. 18, Dasatinib 50 nM vs SR1 5 μM): about 1.2 times | maintaining stemness, times more effective than UM171 ([1]; FIG. 18, Dasatinib 50 nM vs UM171 350 nM): about 2.8 times | proportion of CD34+ cells [1]: about 40%

CCC(=O)O[C@]1(C(=O)SCF)[C@H](C)C[C@H]2[C@@H]3C[C@H](F)C4=CC(=O)C=C[C@]4(C)[C@@]3(F)[C@@H](O)C[C@@]21C [FLU, Fluticasone propionate]
maintaining the stemness of HSCs (comparison with SAHA) [2]: far less effective than SAHA

Cn1cc(C2=C(c3cn(C4CCN(Cc5ccccn5)CC4)c4ccccc34)C(=O)NC2=O)c2ccccc21 [Enzastaurin]
proportion of LT-HSCs, times higher than that of other inhibitors (other than SAHA) ([2]; FIG. 5, Enzastaurin used at low concentrations, Table 7): 3-10 times

CCCC(=O)[O-].[Na+] [Butyrate, Sodium butyrate]
maintaining the stemness of HSCs (comparison with SAHA alone) ([2]; Butyrate alone, results obtained in Example 4): not as good as that of SAHA alone | toxicity to cells ([2]; FIG. 9, high concentration of Butyrate): highly toxic to cells

Cc1cc(NC(=O)c2cccc(NC(=O)/C=C/CN(C)C)c2)ccc1Nc1nccc(-c2cccnc2)n1 [JNK-IN-8]
proportion of CD34+ cells ([2]; FIG. 5, Table 7): about 90%

O=C(NCc1cccc(O)c1)c1cc2cc(F)ccc2[nH]1 [KX1-004]
maintaining the stemness of LT-HSCs (comparison with SAHA) ([2]; FIG. 17, Table 9): not significantly different from that of SAHA

Cc1nc(Nc2ncc(C(=O)Nc3cc(NC(=O)c4cccc(C(F)(F)F)c4)ccc3C)s2)cc(N2CCN(CCO)CC2)n1 [UM-164]
maintaining the proportion of CD34+ cells (comparison with SAHA) ([2]; FIG. 17, Table 9): no significant difference | proportion of CD34+ cells ([2]; FIG. 17, Table 9): about 80% | maintaining the stemness of LT-HSCs, times more effective than SAHA ([2]; FIG. 17, Table 9, SAHA 1 μM): 5 times

O=C(Nc1ccccc1)c1cc([N+](=O)[O-])ccc1Cl [GW9662]
maintaining the stemness of HSCs (comparison with SAHA) [2]: far less effective than SAHA

CCCCC[C@H](O)/C=C/[C@H]1[C@H](O)CC(=O)[C@@H]1C/C=C\CCCC(=O)O [PGE2]
maintaining the stemness of HSCs (comparison with SAHA) [2]: far less effective than SAHA

CCCC(CCC)C(=O)O [VPA, Valproic acid]
maintaining the proportion of CD34+ cells (comparison) ([2]; FIG. 6, Table 8): superior to other small molecules | maintaining the stemness of LT-HSCs, higher than SAHA ([2]; FIG. 6, vs SAHA): about 1 time | maintaining the stemness of LT-HSCs, times higher than other small molecules ([2]; FIG. 6, vs other small molecules in Table 8): about 30 times | proportion of CD34+ cells ([2]; FIG. 15): about 80%

O=C(CCCCCCC(=O)Nc1ccccc1)NO [SAHA]
maintaining the proportion of CD34+ cells (comparison) ([2]; FIG. 2, SAHA 1 μM vs Mock, 0.01% DMSO): slightly better than the control group | increasing the proportion of LT-HSCs, times more effective than other inhibitors ([2]; FIG. 2, vs other inhibitors in Table 4, 6-7 days): 2-20 times | maintaining stemness of HSCs, times more effective than the reported small molecules ([2]; FIG. 3, SAHA 1 μM vs UM171, PGE2, SR1, GW9662 and FLU (Table 5)): 2-20 times | maintaining the proportion of CD34+ cells (comparison) ([2]; FIG. 4, vs other inhibitors in Table 6): better than other inhibitors | maintaining the stemness of HSCs, times more effective than other inhibitors ([2]; FIG. 5, SAHA 1 μM vs other inhibitors in Table 7): 1-12 times | maintaining the proportion of CD34+ cells (comparison) ([2]; FIG. 5, Table 7): slightly better than other inhibitors except JNK-IN-8 | maintaining the proportion of CD34+ cells (comparison) ([2]; FIG. 6, Table 8): superior to other small molecules | maintaining the stemness of LT-HSCs, times more effective than other small molecules (except VPA) ([2]; FIG. 6, Table 8): 15 times | proportion of CD34+ cells ([2]; FIG. 15): about 80% | proportion of CD34+ cells ([2]; FIG. 17, Table 9): about 80%
